Measured values from patent US20240042259A1.

How the values were obtained:
[1] = Hydrolytic decontamination of methyl paraoxon followed by 31P NMR; conditions: for extent of hydrolysis of methyl paraoxon (disappearance of δ31P at −4.89): glycine buffer/DMSO, pH 9.5, 31P NMR
[2] = Hydrolytic decontamination of triphenyl phosphate followed by 31P NMR, pH 9.5; conditions: for extent of hydrolysis of triphenyl phosphate (disappearance of δ31P at −16.28): glycine buffer/DMSO, pH 9.5, 31P NMR
[3] = Hydrolytic decontamination of triphenyl phosphate at pH ~8.5 (31P NMR); conditions: DMSO, pH ~8.5 (aqueous KOH), 0.00765 mmol imine, 0.0153 mmol triphenyl phosphate
[4] = glycine buffer/DMSO 1:1, pH 9.5, 25° C.
[5] = listed as benzaldehyde aminoguanidine imine

Row | Molecule | reaction time for hydrolysis of methyl paraoxon (midpoint of NMR acquisition) [1, 4] [s] | reaction time for hydrolysis of methyl paraoxon ([1]; glycine buffer/DMSO 1:1, pH 9.5, 25° C., 10 mM agent vs 1 mM methyl paraoxon) | reaction time for hydrolysis of triphenyl phosphate (midpoint of NMR acquisition) [2, 4] [s] | reaction time for hydrolysis of triphenyl phosphate ([2]; glycine buffer/DMSO 1:1, pH 9.5, 25° C., 10 mM agent vs 1 mM triphenyl phosphate) | disappearance of triphenyl phosphate δ31P at −16.28 [3] | extent of hydrolysis of methyl paraoxon (disappearance of δ31P at −4.89) [1] | extent of hydrolysis of methyl paraoxon (disappearance of δ31P at −4.89) [1, 5] | extent of hydrolysis of triphenyl phosphate (disappearance of δ31P at −16.28) [2] | extent of hydrolysis of triphenyl phosphate (disappearance of δ31P at −16.28) [2, 5] | extent of hydrolysis of methyl paraoxon (disappearance of δ31P at −4.89) ([1]; listed as pyridine-4-adehyde aminoguanidine imine) | extent of hydrolysis of triphenyl phosphate (disappearance of δ31P at −16.28) ([2]; listed as pyridine-4-aldehyde aminoguanidine imine)
1 | diacetyl monoxime | 48 | less than 1 min | 48 | less than 1 min |  |  |  |  |  |  | 
2 | benzaldehyde aminoguanidine imine |  |  |  |  | disappearance over time |  |  |  |  |  | 
3 | N=C(N)N/N=C/c1ccccc1 | 48 |  | 48 |  |  | quantitatively | complete disappearance | quantitatively | complete disappearance |  | 
4 | N=C(N)N/N=C/c1ccncc1 | 48 |  | 48 |  |  | quantitatively |  | quantitatively |  | complete disappearance | complete disappearance
